Drawing on US10556914B2, “Substituted isoxazolopyridazinones and isothiazolopyridazinones and methods of use” (AbbVie Inc., priority 2015, dated 2020), this text covers EC50 for one substance.

Sequences of proteins named here, by UniProt entry; tags and fusion partners are left off. Residues count along the entry.
UniProt O88871, 41-940: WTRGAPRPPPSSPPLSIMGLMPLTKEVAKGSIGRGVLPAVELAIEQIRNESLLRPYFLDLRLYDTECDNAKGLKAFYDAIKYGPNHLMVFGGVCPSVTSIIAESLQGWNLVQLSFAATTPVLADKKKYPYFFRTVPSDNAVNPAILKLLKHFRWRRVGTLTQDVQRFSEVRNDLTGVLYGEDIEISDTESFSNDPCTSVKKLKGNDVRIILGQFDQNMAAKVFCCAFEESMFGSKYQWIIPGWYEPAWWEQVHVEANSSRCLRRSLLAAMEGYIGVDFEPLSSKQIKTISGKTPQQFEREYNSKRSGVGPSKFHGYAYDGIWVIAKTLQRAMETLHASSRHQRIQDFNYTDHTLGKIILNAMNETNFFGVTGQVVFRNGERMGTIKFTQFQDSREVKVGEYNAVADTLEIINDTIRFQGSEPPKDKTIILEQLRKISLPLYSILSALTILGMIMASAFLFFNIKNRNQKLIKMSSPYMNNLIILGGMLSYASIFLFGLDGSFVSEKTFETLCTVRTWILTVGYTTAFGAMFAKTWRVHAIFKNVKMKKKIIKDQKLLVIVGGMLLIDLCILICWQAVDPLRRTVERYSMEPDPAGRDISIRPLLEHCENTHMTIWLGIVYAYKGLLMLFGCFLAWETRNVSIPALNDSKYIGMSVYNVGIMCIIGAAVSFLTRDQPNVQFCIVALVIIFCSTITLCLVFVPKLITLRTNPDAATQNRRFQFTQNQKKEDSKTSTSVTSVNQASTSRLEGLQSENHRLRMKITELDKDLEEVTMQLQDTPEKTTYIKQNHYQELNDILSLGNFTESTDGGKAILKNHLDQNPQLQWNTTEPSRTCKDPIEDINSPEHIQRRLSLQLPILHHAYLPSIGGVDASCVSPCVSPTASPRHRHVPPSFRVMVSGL
UniProt Q9Z0U4, 17-960: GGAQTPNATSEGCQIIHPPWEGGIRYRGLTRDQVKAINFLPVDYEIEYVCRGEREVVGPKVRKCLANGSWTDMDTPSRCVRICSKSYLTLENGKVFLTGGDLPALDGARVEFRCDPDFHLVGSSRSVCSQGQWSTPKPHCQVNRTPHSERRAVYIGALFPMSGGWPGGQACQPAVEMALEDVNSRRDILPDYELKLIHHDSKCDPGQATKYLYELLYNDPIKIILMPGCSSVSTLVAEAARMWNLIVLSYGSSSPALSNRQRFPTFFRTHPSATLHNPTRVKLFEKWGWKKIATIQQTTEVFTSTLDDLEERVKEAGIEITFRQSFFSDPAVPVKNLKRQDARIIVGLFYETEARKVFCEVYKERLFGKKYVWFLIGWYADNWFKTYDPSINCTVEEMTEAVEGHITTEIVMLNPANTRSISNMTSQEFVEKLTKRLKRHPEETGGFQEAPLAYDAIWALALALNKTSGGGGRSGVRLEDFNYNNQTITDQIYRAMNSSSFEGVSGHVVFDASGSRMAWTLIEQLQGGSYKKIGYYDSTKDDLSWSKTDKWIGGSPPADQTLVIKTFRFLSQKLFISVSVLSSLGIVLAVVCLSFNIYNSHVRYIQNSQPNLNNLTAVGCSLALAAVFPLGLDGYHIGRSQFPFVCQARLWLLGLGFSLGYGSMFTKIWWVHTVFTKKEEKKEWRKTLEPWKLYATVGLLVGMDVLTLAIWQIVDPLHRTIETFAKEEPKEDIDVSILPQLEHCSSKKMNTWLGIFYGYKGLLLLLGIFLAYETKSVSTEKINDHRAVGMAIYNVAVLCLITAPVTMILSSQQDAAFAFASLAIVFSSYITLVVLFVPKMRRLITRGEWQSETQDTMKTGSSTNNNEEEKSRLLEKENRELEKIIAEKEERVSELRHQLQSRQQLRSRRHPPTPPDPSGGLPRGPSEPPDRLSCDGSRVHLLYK

The target in the assay is GABA-B receptor (Rattus norvegicus (Rat), UniProt O88871+Q9Z0U4). Put plainly: [35S]GTPgS Binding Assay (rat brain cortex membranes, native receptor). The note with it: rat cortical membranes; in the presence of 1 μM GABA (EC25); basal binding 0%, maximal binding (1 mM GABA) 100%. In kind it is biochemical. As for the experimental part: Preparation of Rat Brain Membranes for Native Receptor Assays
Membranes from rat brain cortex were prepared as described in detail by Olpe et al. and stored at concentrations of 1.66 mg/mL protein at −80° C. until required. (Olpe, H.-R, et al. Eur J Pharmacol 1990; 187: 27-38).
[^35S]GTPgS Binding Assay
The composition of the assay mixtures [in a final volume of 200 μL in 96-well U-bottom plates (Greiner) was as follows: 50 mM Tris-HCl buffer, pH 7.7, 10 mM MgCl2, 0.2 mM EGTA, 2 mM CaCl2, 100 mM NaCl, 20 μM guanosine 5′-diphosphate (Sigma), 0.3 nM [^35S]GTPgS (1250 Ci/mmol (PerkinElmer)), and the test compounds at increasing concentrations (from 10 nM up to 10 μM), 10 μg of rat cortical membranes, and a concentration of 1 μM GABA, that has been observed in previous experiments to correspond to the EC25, a concentration that gives 25% of the maximal response of GABA. The samples were incubated at room temperature for 60 minutes on a shaker. The incubation was stopped by rapid vacuum filtration over glass-fiber filter plates (UniFilter-96 well, GF/B membrane plates, PerkinElmer) using a 96-well plate harvester (TOMTEK© Harvester). […] Nonspecific binding was measured in the presence of unlabeled 10 μM of GTPgS (Millipore) and without GABA. Basal binding was measured in the absence of 1 μM GABA, and maximal binding was measured in the presence of GABA using 1 mM GABA concentrations. […]
(In general: GTPγS resists hydrolysis and so accumulates on activated G proteins.)

Turning to “N-(3-{5-[4-fluoro-3-(trifluoromethyl)benzyl]-3-methyl-4-oxo-4,5-dihydro[1,2]oxazolo[4,5-d]pyridazin-7-yl}phenyl)acetamide [Example 41]”, the 50% effective concentration (EC50) was determined as 4.67 µM.

In general, EC50 refers to the concentration giving half of the maximal effect.
